Laboratory results as given in US10004701B2, “Methods and compositions for treating infection” (UNIVERSITY OF ROCHESTER, priority 2012, dated 2018).

Tests used:
Test in all cases: AK assay 384-well format, Prestwick library screening
Conditions in all cases: 50 μM final drug concentration
E. faecium = system: E. faecium
[1] = system: S. aureus strain USA300-0114
K. pneumoniae = system: K. pneumoniae
[2] = system: A. baumannii strain 98-37-09
P. aeruginosa = system: P. aeruginosa
E. cloacae = system: E. cloacae
E. coli = system: E. coli
[3] = cutoff for positive-scoring molecules 3-fold increase

Substance: Pirlindole mesylate
- AK-based Prestwick Library Screening Results, E. faecium (fold increase in extracellular AK activity) (E. faecium; [3]): 0.9
- AK-based Prestwick Library Screening Results, S. aureus (fold increase in extracellular AK activity) [1, 3]: 0.6
- AK-based Prestwick Library Screening Results, K. pneumoniae (fold increase in extracellular AK activity) (K. pneumoniae; [3]): 0.6
- AK-based Prestwick Library Screening Results, A. baumannii (fold increase in extracellular AK activity) [2, 3]: 0.7
- AK-based Prestwick Library Screening Results, P. aeruginosa (fold increase in extracellular AK activity) (P. aeruginosa; [3]): 0.7
- AK-based Prestwick Library Screening Results, E. cloacae (fold increase in extracellular AK activity) (E. cloacae; [3]): 0.7
- AK-based Prestwick Library Screening Results, E. coli (fold increase in extracellular AK activity) (E. coli; [3]): 0.7

Substance: Thiethylperazine malate
- AK-based Prestwick library screening result, E. faecium (fold increase in extracellular AK activity) (E. faecium; planktonic E. faecium, positive cutoff 3-fold increase): 1.0
- AK-based Prestwick library screening result, S. aureus (fold increase in extracellular AK activity) ([1]; planktonic S. aureus, positive cutoff 3-fold increase): 0.8
- AK-based Prestwick library screening result, K. pneumoniae (fold increase in extracellular AK activity) (K. pneumoniae; planktonic K. pneumoniae, positive cutoff 3-fold increase): 1.0
- AK-based Prestwick library screening result, A. baumannii (fold increase in extracellular AK activity) ([2]; planktonic A. baumannii, positive cutoff 3-fold increase): 2.1
- AK-based Prestwick library screening result, P. aeruginosa (fold increase in extracellular AK activity) (P. aeruginosa; planktonic P. aeruginosa, positive cutoff 3-fold increase): 0.8
- AK-based Prestwick library screening result, E. cloacae (fold increase in extracellular AK activity) (E. cloacae; planktonic E. cloacae, positive cutoff 3-fold increase): 1.0
- AK-based Prestwick library screening result, E. coli (fold increase in extracellular AK activity) (E. coli; planktonic E. coli, positive cutoff 3-fold increase): 1.1
